# Reference: US10087225B2, “Formulation of MK2 inhibitor peptides” (MOERAE MATRIX, INC., priority 2015, dated 2018)
# Chains of the proteins cited; added tags and fusions are not shown. Lines headed by an entry give the natural chain unless they say otherwise; changes in a name come on top.
# UniProt P48730: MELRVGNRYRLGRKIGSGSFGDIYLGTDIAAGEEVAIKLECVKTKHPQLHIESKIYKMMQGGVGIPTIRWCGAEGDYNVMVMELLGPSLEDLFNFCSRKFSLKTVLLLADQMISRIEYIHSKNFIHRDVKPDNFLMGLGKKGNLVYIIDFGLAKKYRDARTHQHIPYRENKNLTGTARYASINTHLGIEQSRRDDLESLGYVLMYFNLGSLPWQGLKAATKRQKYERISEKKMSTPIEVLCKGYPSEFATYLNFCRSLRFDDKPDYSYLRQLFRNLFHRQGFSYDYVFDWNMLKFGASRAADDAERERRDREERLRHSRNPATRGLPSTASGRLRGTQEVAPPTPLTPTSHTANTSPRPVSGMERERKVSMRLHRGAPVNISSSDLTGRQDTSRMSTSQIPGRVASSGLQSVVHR
# UniProt P06239: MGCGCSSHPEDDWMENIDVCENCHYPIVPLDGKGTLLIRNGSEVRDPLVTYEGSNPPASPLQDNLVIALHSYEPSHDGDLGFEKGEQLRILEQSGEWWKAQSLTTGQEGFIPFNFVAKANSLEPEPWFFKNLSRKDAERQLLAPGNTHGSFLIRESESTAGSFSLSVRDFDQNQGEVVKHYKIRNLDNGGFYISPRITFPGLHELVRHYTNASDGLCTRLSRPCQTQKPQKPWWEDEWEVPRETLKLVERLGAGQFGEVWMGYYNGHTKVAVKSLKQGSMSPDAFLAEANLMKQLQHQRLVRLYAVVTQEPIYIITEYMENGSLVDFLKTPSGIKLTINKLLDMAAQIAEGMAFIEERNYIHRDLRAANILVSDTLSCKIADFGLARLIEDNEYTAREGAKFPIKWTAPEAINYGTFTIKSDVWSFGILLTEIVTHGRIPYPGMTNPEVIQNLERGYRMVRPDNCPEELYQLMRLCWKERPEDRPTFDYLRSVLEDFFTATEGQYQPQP
# UniProt P57059: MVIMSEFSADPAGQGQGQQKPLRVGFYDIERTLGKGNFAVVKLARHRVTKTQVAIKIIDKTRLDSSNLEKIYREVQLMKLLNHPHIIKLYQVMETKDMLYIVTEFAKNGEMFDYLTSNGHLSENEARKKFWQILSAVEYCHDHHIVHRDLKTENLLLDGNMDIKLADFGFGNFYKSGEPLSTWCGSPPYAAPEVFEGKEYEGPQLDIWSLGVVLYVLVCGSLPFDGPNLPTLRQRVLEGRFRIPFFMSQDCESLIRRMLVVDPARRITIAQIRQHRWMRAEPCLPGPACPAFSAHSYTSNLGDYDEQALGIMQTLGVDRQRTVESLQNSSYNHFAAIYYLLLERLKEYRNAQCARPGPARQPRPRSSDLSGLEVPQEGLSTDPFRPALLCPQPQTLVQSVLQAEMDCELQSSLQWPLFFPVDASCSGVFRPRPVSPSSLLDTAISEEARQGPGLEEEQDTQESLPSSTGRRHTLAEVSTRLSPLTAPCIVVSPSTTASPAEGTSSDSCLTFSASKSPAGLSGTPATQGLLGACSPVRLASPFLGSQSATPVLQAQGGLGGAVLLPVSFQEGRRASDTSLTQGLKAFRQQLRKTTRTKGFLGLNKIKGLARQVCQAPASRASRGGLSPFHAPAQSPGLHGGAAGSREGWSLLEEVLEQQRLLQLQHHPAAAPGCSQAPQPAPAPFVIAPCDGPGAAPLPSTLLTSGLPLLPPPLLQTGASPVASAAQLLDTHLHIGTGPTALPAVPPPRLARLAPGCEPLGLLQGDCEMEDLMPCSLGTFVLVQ
# UniProt P19784, whole entry: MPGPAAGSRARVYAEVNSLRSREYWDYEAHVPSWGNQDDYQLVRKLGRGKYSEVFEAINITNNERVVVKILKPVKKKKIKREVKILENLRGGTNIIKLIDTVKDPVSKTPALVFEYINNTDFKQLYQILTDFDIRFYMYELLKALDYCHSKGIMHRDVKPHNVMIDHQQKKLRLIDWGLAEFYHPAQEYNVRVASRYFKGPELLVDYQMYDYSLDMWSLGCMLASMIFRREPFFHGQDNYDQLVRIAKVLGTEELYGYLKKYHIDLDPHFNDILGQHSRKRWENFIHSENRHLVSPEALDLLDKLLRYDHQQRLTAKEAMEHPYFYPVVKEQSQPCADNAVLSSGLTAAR
# UniProt P53667: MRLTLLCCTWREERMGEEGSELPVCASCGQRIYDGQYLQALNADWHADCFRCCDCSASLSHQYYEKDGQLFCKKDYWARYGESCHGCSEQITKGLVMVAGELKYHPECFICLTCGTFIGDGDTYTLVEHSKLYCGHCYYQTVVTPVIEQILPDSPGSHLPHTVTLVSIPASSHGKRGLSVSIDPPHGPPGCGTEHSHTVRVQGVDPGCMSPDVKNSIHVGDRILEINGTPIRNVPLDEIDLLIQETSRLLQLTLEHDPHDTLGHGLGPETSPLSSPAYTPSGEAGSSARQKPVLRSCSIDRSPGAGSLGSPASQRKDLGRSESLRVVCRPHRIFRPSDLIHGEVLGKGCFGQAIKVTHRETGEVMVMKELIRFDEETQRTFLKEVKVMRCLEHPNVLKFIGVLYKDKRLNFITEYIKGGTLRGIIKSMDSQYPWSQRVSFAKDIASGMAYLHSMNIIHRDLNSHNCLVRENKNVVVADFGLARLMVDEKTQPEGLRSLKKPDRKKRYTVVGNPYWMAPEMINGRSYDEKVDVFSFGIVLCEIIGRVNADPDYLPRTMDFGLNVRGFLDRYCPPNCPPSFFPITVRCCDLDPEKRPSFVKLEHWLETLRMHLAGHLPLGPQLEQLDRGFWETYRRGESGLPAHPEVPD
# UniProt Q9H4B4: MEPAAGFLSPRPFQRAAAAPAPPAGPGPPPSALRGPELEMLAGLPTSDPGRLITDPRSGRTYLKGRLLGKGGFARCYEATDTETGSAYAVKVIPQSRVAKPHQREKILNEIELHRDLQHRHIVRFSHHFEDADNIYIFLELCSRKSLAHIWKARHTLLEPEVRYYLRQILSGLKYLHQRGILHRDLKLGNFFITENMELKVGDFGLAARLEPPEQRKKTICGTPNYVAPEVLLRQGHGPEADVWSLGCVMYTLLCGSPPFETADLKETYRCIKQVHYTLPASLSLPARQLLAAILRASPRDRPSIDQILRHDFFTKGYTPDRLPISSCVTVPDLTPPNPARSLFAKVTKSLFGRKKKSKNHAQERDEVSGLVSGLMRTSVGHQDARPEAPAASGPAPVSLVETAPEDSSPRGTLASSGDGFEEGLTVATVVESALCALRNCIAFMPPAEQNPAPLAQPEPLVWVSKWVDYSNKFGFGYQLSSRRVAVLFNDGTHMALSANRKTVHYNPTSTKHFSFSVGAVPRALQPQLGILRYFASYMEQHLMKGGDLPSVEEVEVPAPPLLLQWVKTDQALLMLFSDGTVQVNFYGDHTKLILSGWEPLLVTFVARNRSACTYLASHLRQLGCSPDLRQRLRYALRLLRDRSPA
# UniProt P50750, whole entry: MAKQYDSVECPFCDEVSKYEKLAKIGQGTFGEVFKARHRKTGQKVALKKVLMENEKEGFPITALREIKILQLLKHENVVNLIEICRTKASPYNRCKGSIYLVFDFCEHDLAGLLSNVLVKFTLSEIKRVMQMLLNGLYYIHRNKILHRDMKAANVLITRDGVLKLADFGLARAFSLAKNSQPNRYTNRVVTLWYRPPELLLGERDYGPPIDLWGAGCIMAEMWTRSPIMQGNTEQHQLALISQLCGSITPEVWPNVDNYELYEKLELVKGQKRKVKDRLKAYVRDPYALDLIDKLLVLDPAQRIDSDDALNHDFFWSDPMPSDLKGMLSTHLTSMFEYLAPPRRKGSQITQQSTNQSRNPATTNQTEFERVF
# UniProt O14920: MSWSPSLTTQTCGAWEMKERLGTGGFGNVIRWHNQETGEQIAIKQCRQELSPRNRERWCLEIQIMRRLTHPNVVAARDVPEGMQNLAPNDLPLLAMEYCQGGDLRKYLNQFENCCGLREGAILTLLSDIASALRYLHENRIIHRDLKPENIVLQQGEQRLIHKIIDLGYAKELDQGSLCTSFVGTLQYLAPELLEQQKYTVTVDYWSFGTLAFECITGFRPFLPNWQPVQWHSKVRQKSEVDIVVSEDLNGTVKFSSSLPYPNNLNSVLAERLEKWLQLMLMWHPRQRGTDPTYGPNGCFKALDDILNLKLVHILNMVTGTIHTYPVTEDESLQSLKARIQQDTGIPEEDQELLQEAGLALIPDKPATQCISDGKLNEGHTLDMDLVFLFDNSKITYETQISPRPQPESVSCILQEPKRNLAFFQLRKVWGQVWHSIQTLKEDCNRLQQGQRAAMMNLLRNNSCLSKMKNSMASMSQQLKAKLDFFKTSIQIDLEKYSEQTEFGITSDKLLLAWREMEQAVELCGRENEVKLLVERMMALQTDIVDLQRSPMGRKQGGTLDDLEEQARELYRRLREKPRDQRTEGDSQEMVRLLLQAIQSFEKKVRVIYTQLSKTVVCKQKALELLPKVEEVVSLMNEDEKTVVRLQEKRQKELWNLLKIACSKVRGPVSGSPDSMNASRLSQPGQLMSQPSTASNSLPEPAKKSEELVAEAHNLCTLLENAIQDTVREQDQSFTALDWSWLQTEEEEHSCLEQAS
# UniProt O15530: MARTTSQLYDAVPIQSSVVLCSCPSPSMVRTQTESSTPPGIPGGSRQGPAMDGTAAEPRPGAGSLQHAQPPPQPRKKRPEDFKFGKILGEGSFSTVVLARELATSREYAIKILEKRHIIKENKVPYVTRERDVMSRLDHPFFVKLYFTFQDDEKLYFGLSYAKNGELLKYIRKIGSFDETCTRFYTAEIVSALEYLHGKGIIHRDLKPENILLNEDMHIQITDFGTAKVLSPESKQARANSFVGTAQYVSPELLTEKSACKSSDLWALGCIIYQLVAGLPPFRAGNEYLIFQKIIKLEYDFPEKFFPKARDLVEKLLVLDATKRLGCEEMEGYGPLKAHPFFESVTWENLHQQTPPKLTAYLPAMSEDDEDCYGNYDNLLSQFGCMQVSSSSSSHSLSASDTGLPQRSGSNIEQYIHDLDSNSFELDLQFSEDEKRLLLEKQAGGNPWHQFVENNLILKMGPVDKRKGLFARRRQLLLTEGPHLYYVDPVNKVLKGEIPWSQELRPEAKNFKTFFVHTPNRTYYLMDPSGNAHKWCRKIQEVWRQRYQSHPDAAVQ
# UniProt O43353, whole entry: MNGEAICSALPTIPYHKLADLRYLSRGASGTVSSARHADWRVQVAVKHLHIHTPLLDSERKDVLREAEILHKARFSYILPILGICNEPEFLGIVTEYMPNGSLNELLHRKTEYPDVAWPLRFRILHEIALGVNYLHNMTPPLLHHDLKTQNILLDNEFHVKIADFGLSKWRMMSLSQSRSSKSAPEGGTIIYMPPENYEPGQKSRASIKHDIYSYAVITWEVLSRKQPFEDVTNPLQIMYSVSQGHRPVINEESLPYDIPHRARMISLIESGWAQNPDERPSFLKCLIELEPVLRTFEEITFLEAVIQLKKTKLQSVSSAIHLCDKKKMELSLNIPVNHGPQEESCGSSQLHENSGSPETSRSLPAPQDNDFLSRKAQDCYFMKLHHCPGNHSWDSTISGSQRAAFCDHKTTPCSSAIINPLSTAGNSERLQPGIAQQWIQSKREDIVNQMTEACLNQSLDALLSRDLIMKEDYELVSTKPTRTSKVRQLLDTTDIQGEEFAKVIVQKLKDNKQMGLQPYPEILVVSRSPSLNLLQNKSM
# UniProt P51812, whole entry: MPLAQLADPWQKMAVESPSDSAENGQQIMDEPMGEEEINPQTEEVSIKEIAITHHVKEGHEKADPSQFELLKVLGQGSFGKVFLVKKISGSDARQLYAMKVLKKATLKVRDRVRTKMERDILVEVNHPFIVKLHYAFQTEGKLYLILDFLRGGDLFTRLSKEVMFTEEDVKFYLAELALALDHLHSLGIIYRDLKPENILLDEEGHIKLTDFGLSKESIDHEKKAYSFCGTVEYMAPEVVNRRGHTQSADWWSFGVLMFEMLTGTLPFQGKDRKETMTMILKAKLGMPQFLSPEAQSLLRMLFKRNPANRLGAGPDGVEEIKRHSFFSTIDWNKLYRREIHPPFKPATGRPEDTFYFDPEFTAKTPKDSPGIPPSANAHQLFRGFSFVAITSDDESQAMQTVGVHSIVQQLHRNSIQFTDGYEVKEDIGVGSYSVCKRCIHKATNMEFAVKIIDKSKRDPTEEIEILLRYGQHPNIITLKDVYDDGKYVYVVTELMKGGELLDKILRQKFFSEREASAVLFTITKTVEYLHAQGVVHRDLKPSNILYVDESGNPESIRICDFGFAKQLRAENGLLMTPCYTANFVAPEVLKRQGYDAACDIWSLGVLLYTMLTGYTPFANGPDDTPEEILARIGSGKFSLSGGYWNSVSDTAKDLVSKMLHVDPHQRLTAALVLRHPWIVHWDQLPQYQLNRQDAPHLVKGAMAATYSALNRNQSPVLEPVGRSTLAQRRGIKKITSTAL
# Key:
# Experiment in all cases: Kinase Profiling Assay
# Format in all cases: biochemical
# PAR-1Bα(h) = PAR-1Bα(h) (Homo sapiens, UniProt Q7KZI7)
# CK1δ(h) = CK1δ(h) (Homo sapiens, UniProt P48730)
# DAPK2(h) = DAPK2(h) (Homo sapiens, UniProt Q9UIK4)
# PhKγ2(h) = PhKγ2(h) (Homo sapiens, UniProt P15735)
# JNK3(h) = JNK3(h) (Homo sapiens, UniProt P53779)
# SAPK2a(h) = SAPK2a(h) (Homo sapiens, UniProt Q16539)
# Lck(h) = Lck(h) (Homo sapiens, UniProt P06239)
# Lyn(h) = Lyn(h) (Homo sapiens, UniProt P07948)
# SIK(h) = SIK(h) (Homo sapiens, UniProt P57059)
# Syk(h) = Syk(h) (Homo sapiens, UniProt P43405)
# CK2α2(h) = CK2α2(h) (Homo sapiens, UniProt P19784)
# CaMKIIδ(h) = CaMKIIδ(h) (Homo sapiens, UniProt Q13557)
# LKB1(h) = LKB1(h) (Homo sapiens, UniProt Q15831)
# TBK1(h) = TBK1(h) (Homo sapiens, UniProt Q9UHD2)
# LIMK1(h) = LIMK1(h) (Homo sapiens, UniProt P53667)
# ROCK-II(h) = ROCK-II(h) (Homo sapiens, UniProt O75116)
# Flt1(h) = Flt1(h) (Homo sapiens, UniProt P17948)
# Plk3(h) = Plk3(h) (Homo sapiens, UniProt Q9H4B4)
# CDK9/cyclin T1(h) = CDK9/cyclin T1(h) (Homo sapiens, UniProt P50750)
# IGF-1R(h) = IGF-1R(h) (Homo sapiens, UniProt P08069)
# JNK2α2(h) = JNK2α2(h) (Homo sapiens, UniProt P45984)
# mTOR/FKBP12(h) = mTOR/FKBP12(h) (Homo sapiens, UniProt P42345)
# CK1γ2(h) = CK1γ2(h) (Homo sapiens, UniProt P78368)
# GSK3β(h) = GSK3β(h) (Homo sapiens, UniProt P49841)
# Pim-3(h) = Pim-3(h) (Homo sapiens, UniProt Q86V86)
# AMPKa1(h) = AMPKa1(h) (Homo sapiens, UniProt Q13131)
# IKKβ(h) = IKKβ(h) (Homo sapiens, UniProt O14920)
# CHK1(h) = CHK1(h) (Homo sapiens, UniProt O14757)
# Ab1(M351T)(h) = Ab1(M351T)(h) (Homo sapiens, UniProt P00519, M351T)
# EphA1(h) = EphA1(h) (Homo sapiens, UniProt P21709)
# Tie2(R849W)(h) = Tie2(R849W)(h) (Homo sapiens, UniProt Q02763, R849W)
# CDK2/cyclinE(h) = CDK2/cyclinE(h) (Homo sapiens, UniProt P24941)
# VRK2(h) = VRK2(h) (Homo sapiens, UniProt Q86Y07)
# PDK1(h) = PDK1(h) (Homo sapiens, UniProt O15530)
# PKCθ(h) = PKCθ(h) (Homo sapiens, UniProt Q04759)
# MST3(h) = MST3(h) (Homo sapiens, UniProt Q9Y6E0)
# EphB3(h) = EphB3(h) (Homo sapiens, UniProt P54753)
# IR(h) = IR(h) (Homo sapiens, UniProt P06213)
# RIPK2(h) = RIPK2(h) (Homo sapiens, UniProt O43353)
# Src(1-530)(h) = target: T1, Src(1-530)(h) (Homo sapiens, UniProt P12931)
# T1 construct: Src(1-530)(h)
# Rsk2(h) = Rsk2(h) (Homo sapiens, UniProt P51812)
structure (smiles),measurement,setting,value
CC(C)C[C@H](NC(=O)[C@H](C)NC(=O)[C@H](CCCCN)NC(=O)[C@H](C)NC(=O)[C@H](CCCNC(=N)N)NC(=O)[C@H](C)NC(=O)[C@H](CCC(N)=O)NC(=O)[C@H](CCCNC(=N)N)NC(=O)[C@H](C)NC(=O)[C@H](C)NC(=O)[C@H](C)NC(=O)[C@H](CCCNC(=N)N)NC(=O)[C@H](C)NC(=O)[C@@H](N)Cc1ccc(O)cc1)C(=O)N[C@@H](C)C(=O)N[C@@H](CCCNC(=N)N)C(=O)N[C@@H](CCC(N)=O)C(=O)N[C@@H](CC(C)C)C(=O)NCC(=O)N[C@H](C(=O)N[C@@H](C)C(=O)N[C@@H](C)C(=O)O)C(C)C [MMI-0100],activity at 100 µM,PAR-1Bα(h),62%
same,activity at 100 µM,CK1δ(h),115%
same,activity at 100 µM,DAPK2(h),41%
same,activity at 100 µM,PhKγ2(h),62%
same,activity at 100 µM,JNK3(h),104%
same,activity at 100 µM,SAPK2a(h),110%
same,activity at 100 µM,Lck(h),346%
same,activity at 100 µM,Lyn(h),113%
same,activity at 100 µM,SIK(h),113%
same,activity at 100 µM,Syk(h),45%
same,activity at 100 µM,CK2α2(h),104%
same,activity at 100 µM,CaMKIIδ(h),89%
same,activity at 100 µM,LKB1(h),111%
same,activity at 100 µM,TBK1(h),106%
same,activity at 100 µM,LIMK1(h),103%
same,activity at 100 µM,ROCK-II(h),102%
same,activity at 100 µM,Flt1(h),109%
same,activity at 100 µM,Plk3(h),107%
same,activity at 100 µM,CDK9/cyclin T1(h),228%
same,activity at 100 µM,IGF-1R(h),102%
same,activity at 100 µM,JNK2α2(h),114%
same,activity at 100 µM,mTOR/FKBP12(h),117%
same,activity at 100 µM,CK1γ2(h),119%
same,activity at 100 µM,GSK3β(h),113%
same,activity at 100 µM,Pim-3(h),98%
same,activity at 100 µM,AMPKa1(h),107%
same,activity at 100 µM,IKKβ(h),105%
same,activity at 100 µM,CHK1(h),97%
same,activity at 100 µM,Ab1(M351T)(h),128%
same,activity at 100 µM,EphA1(h),114%
same,activity at 100 µM,Tie2(R849W)(h),102%
same,activity at 100 µM,CDK2/cyclinE(h),106%
same,activity at 100 µM,VRK2(h),112%
same,activity at 100 µM,PDK1(h),144%
same,activity at 100 µM,PKCθ(h),102%
same,activity at 100 µM,MST3(h),104%
same,activity at 100 µM,EphB3(h),109%
same,activity at 100 µM,IR(h),112%
same,activity at 100 µM,RIPK2(h),92%
same,activity at 100 µM,Src(1-530)(h),95%
same,activity at 100 µM,Rsk2(h),65%
